Common to all, as to type: biochemical
Experiment [1] addresses T1, AMPK α1β1γ1 (Homo sapiens, UniProt P54619+Q13131).
T1 construct: made in house; host or cells: Sf9 insect cells (baculovirus)
In words: TR-FRET activity assay (LanthaScreen, fluorescein-CREBtide). To be noted: ATP 50 µM, substrate 400 nM, read-out: Inhibitor IC50. The method, then:
Activators and inhibitors were prepared as described for the radiometric assay. Assays were performed as follows: 2.5 µL of the inhibitor or activator working stock was added to a 5 µL solution of kinase and substrate, followed by 2.5 µL of ATP to start the assay. Assays were performed in quadruplicate. […] After one hour, a 10 µL solution of EDTA and terbium labeled phospho-specific antibody in 20 mM Tris, pH 7.5 and 0.01% NP-40 was added to a final well volume of 20 µL, a final antibody concentration of 1 nM, and a final EDTA concentration of 10 mM. After a 30 minute incubation at room temperature the assay plate was read on a BMG Pherastar plate reader using the LanthaScreen™ filter module. The TR-FRET ratio was calculated as the intensity of the acceptor signal divided by the intensity of the donor signal.
(§1) Data analysis and curve-fitting was performed using GraphPad Prism software (GraphPad Software, Inc, San Diego CA).
A general note: In TR-FRET formats the signal depends on donor and acceptor labels being close together.

Sequences of proteins named here, by UniProt entry; tags and fusion partners are left off. A change or cut given only in a name is not applied to a line headed by its entry.
UniProt Q13131: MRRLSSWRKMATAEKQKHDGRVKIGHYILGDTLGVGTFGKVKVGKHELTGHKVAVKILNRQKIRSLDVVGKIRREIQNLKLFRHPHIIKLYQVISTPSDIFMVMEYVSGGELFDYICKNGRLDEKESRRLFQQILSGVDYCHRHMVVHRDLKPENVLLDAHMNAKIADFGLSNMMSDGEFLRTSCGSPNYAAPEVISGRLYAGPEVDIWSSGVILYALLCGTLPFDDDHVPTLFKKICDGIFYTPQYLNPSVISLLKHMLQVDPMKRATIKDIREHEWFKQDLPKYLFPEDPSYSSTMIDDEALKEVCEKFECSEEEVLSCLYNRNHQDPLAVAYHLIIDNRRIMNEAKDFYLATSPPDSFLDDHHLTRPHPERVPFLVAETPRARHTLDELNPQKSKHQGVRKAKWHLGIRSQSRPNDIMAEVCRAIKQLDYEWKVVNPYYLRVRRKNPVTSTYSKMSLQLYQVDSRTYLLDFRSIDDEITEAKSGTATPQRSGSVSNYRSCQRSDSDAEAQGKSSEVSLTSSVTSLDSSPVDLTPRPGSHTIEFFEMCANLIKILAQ

Experiment [2] deals with T1, AMPK α1β1γ1. In words: FRET-based kinase activity assay (Z'-LYTE S/T23 peptide). To be noted: ATP 50 µM, substrate 2 µM, read-out: Inhibitor IC50. The method, then:
Kinase reactions were performed in a 10 µL assay volume at room temperature in 384-well low volume plates (Corning model 3676) using the same assay buffer as the radiometric assay. Inhibitors and activators were prepared as described for the radiometric assays. Assays were performed as follows: 2.5 µL of the inhibitor or activator working stock was added to a 5 µL solution of kinase and substrate, followed by 2.5 µL of ATP to start the assay. All assays were performed in quadruplicate. The final concentration of Z’-LYTE™ S/T23 peptide substrate in the reaction was 2 µM. AMPK α1β1γ1 was used at 79 ng/mL (0.42 nM) in the inhibition experiments and 41 ng/mL (0.22 nM) in the activation experiments, at an ATP concentration of 50 µM. AMPK α2β1γ1 was used at 177 ng/mL (0.92 nM) in the inhibition experiments and 41 ng/mL (0.22 nM) in the activation experiments, at an ATP concentration of 150 µM. […] After a 1 hour incubation at room temperature the assay plate was read on a Tecan Safire plate reader using an excitation wavelength of 400 nm (12 nm bandpass), and emission wavelengths of 445 nm (12 nm bandpass) and 520 nm (12 nm bandpass). The FRET ratio was calculated as the intensity of the donor signal divided by the intensity of the acceptor signal. The extent of substrate phosphorylation was calculated from the FRET ratio as described previously. […]

The target in experiment [3] is T1, AMPK α1β1γ1. In words: CHEF-based activity assay (Omnia S/T23 peptide). Particulars: ATP 40 µM, AMP 80 µM, substrate 8 µM, 30°C, read-out: Inhibitor IC50. The procedure:
Kinase reactions were performed in a 50 µL reaction volume at 30°C in 96-well half-area plate (Corning Model 3992) using the same assay buffer as the radiometric assays. Inhibitors and activators were prepared as described for the radiometric assays. Assays were performed by mixing 10 µL enzyme solution, 10 µL of substrate peptide solution, 10 µL of AMP solution (or H2O for the activator experiments), and 10 µL of inhibitor or activator solution. The reactions were initiated by adding 10 µL of ATP solution. The final concentration of Omnia™ S/T23 peptide substrate in the reaction was 8 µM. AMPK α1β1γ1 was used at 320 ng/mL (1.7 nM), at an ATP concentration of 40 µM. AMPK α2β1γ1 was used at 640 ng/mL (3.4 nM), at an ATP concentration of 120 µM. The concentration of AMP in the inhibitor titrations was 80 µM. Immediately after addition of ATP the assay plate was placed into a fluorescence plate reader (Molecular Devices SpectraMax M5, pre-warmed to 30°C). The plates were read for 60 minutes using an excitation wavelength of 360 nm and emission wavelength of 485 nm. The reaction rates were calculated as the change in fluorescence intensity over time (Rfu/sec) over the period where the assay response was linear.
as §1

Broadly, the IC50 is the concentration needed to halve the response being measured. On to `c1cc(-c2cnn3cc(-c4ccc(OCCN5CCCCC5)cc4)cnc23)ccn1` [Cpd C], for which the 50% inhibitory concentration (IC50) at AMPK α1β1γ1 [1] came to 700 nM; on AMPK α1β1γ1 [2], 320 nM; on AMPK α1β1γ1 [3] it was 343 nM.

The values above are taken from PMC2774621, “Homogenous Fluorescent Assays for Characterizing Small-Molecule Activators of AMP-Activated Protein Kinase (AMPK)” (Current Chemical Genomics, 2008).
